The results in this text go back to PubChem BioAssay AID624156 (Broad Institute, 2012).

The list shows a part of the results, in another mix than the full data. Some structures show a salt or complex split into parts, the way the source records it. Active and inactive are the calls of the source. No stated cut-off is given here; in the data, active means ROS induction above about 79% (passing the limit was not always enough); inconclusive means no clear call, values can overlap the other calls.

This experiment in a line: ROS inducers in U2OS cancer cells, primary screen, cell-based, H2DCF-DA fluorescence (AID 624156).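 Further: 0% = DMSO vehicle median and 100% = reference compound median.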 Conditions: at 10 µM, active compounds read high.
As to `Cc1cc(C)cc(OP(C)(=O)Nc2ccc(OC(C)C)cc2)c1` (centres undefined), the ROS induction (% of piperlongumine) is inactive: -2.02%. The figure for `C/C1=C2N=C(/C=C3N=C(/C(C)=C4\[N-][C@@](C)([C@@H]5N=C1[C@](C)(CCC(=O)NCC(C)OP(=O)(O)O[C@@H]1[C@H](O)[C@H](n6cnc7cc(C)c(C)cc76)O[C@H]1CO)[C@H]5CC(N)=O)[C@@](C)(CC(N)=O)[C@@H]4CCC(N)=O)[C@@](C)(CC(N)=O)[C@@H]\3CCC(N)=O)C(C)(C)[C@@H]/2CCC(N)=O.[C-]#N.[Co+3]` (some centres undefined) is inactive: -5.85%; for `CP(=O)(Nc1ccc(Cl)cc1)Oc1ccc(F)cc1` (centres undefined) it is inactive: -2.39%; for `COc1cc2c(cc1NP(C)(=O)Oc1ccccc1)oc1ccccc12` (centres undefined) it is inactive: 28.4%.
